Key:
Plasma = details: human, 4 h
[1] = target: Tyrosine-protein kinase BTK (Homo sapiens, UniProt Q06187)

Amino acid sequences for entries named in this document (tags omitted). A change or cut given only in a name is not applied to a line headed by its entry.
UniProt Q06187: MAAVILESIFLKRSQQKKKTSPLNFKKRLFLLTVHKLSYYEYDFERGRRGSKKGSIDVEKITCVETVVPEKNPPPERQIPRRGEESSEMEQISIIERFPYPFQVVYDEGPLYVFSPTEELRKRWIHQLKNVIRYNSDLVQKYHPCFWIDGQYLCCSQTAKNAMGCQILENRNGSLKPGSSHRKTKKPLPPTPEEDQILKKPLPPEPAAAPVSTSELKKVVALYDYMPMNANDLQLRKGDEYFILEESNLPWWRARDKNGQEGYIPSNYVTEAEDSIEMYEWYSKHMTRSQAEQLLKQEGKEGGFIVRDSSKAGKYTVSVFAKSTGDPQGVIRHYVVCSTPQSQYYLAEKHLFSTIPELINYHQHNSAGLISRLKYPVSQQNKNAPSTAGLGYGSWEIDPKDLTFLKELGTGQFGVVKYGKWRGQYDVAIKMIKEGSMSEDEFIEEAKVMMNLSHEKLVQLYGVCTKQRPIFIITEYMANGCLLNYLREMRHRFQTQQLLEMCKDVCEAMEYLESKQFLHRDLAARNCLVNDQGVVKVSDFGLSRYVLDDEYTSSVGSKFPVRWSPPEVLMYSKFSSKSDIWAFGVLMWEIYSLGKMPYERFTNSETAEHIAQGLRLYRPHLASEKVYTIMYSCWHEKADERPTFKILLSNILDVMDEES

PPB (Plasma) [%]	Compound	IC50 [1] [nM]
97	Cn1cc(-c2cccc(N3CCc4c(sc5c4CCCC5)C3=O)c2CO)cc(Nc2ccncn2)c1=O	–
–	Cn1cc(-c2cc(F)cc(N3CCn4c(cc5c4CCCC5)C3=O)c2CO)cc(Nc2ccc(N3CCN(C4COC4)CC3)cn2)c1=O	4
99	Cc1c(-c2cc(Nc3ccncn3)c(=O)n(C)c2)cccc1N1CCc2c(sc3c2CCCC3)C1=O	–
